In patent publication EP0286252A2, “Anti-cancer composition & method featuring cyanine dyes” (DANA FARBER CANCER INSTITUTE, priority 1987, dated 1988):

Tested on: human melanoma cell line, LOX
Assay: LOX melanoma survival test, nude mice protocol
Format: in vivo, athymic Swiss nu/nu mice
Details: T/C over 145% considered indicative of increased survival or remission
Description: Figs. 1-8 are a plot of survival rates of a cancer in an animal model, either treated as per the invention or untreated. In these plots, "% survival" means the % of the total group (treated "T" or control "C") still surviving on the day in question. The 50% data point is selected for the T/C calculation, as being the point that is statistically meaningful.
In the examples that follow, "nude mice protocol" refers to conventional xenografted human carcinoma or melanoma cells implanted into athymic mice. […] This has been reported in, e.g., the Journal of the National Cancer Institute, Vol. 74, No. 4, p. 899-903, especially p. […] (April 1985).
A human melanoma cell line, LOX, was utilized that grows rapidly when innoculated into the peritoneal cavity of athymic mice. Tumors which had been passaged subcutaneously in athymic mice were excised under sterile conditions and converted to a single cell suspension using a metal grid with a 4 mm mesh. […] Cells were then scored for viability with trypan blue and 5 million viable cells made up in 0.1 ml of Dulbecco modified Eagles' medium (DME) were injected intraperitoneally into a group of athymic Swiss nu/nu mice (day 0). […]
T/C is the ratio, expressed as a percentage, of mean survival age of the treated group, to the mean survival age of the untreated control group.

With CCCN1C(=CC=Cc2sc3ccccc3[n+]2CCC)Sc2ccccc21 [Dye No. 5, 3-propyl-2-[3-(3-propyl-4-benzothia-zolin-2-ylidene)-1-propen-1-yl]benzothiazolium iodide] the “outcome of treatment of the melanoma (verdict in words)” value was “failure”.
